The values that follow come from published antibiotic growth screens (doi:10.1038/s41589-023-01349-8).

This is one part of the list.

In the assay the test system is A. baumannii ATCC 17978. Briefly: relative growth (fraction of control); higher = less inhibition. Conditions: 50 µM.
Turning to `Nc1nnnn1/N=C\C=C\c1ccccc1`, the relative growth is 1.01. `COc1cccc(S(=O)(=O)N[C@H]2CC[C@@H](CC(=O)NC3CCC3)O[C@@H]2CO)c1` gave a relative growth of 0.879. In the case of `CC1(C)C(=O)NCCN1C(=O)C1CC1` it was 0.975; in that of `CO[C@H]1CN(C)C(=O)c2cc(NS(C)(=O)=O)ccc2OC[C@H](C)N(C(=O)C2CCCCC2)C[C@@H]1C`, 1.01; in that of `C[Si](C)(C)O[Si](C)(C)O[Si](C)(C)C`, 0.853. As to `CC1(C)[C@@H]2CC[C@]1(C)C(=O)C2`, the relative growth is 0.952. In the case of `CN(C)CC/C=C1\c2ccccc2Sc2ccc(Cl)cc21.Cl` it was 0.851. Regarding `O=C1CCC(=O)N1CNc1ccccn1`, the relative growth was 0.981. In the case of `C[C@@H]1CN([C@@H](C)CO)S(=O)(=O)c2ccc(C#CCN(C)C)cc2O[C@@H]1CN(C)C(=O)c1ccccc1F` it was 1.02; in that of `COCCOC(=O)N1C(=O)[C@@]2(c3cc(C#Cc4ccc(OC)cc4)ccc31)[C@H](c1ccc(O)cc1)N1[C@H](c3ccccc3)[C@H](c3ccccc3)OC(=O)[C@H]1[C@@H]2C(=O)N1CCc2cc(OC)c(OC)cc2C1`, 0.907. The result for `COc1ccc([C@H]([C@H](Cc2ccccc2)OC(C)=O)N(C[C@H](/C=C/c2ccccc2)OC(C)=O)[C@@H](Cc2ccccc2)C(OC)OC)cc1` reads 1.13; that for `O=C(C[C@H]1C=C[C@@H](NC(=O)Cc2ccccn2)[C@H](CO)O1)NCCc1ccncc1`, 1.03. The result for `CC[N+](C)(CC)Cc1ccccc1` reads 1.1. Compound `C[C@@H]1CN([C@@H](C)CO)C(=O)c2cccc(NC(=O)Nc3cccc4ccccc34)c2O[C@H]1CN(C)S(=O)(=O)c1ccc2c(c1)OCCCO2` registered a relative growth of 1.06. In the case of `O=C(CN1CCOCC1)N[C@H]1CC[C@@H](CCn2cc(C3CCCC3)nn2)O[C@H]1CO` it was 0.961; in that of `C[C@H](CO)N1C[C@H](C)[C@@H](CN(C)C(=O)c2cccc(F)c2)Oc2cc(-c3ccncc3)ccc2S1(=O)=O`, 1.08. For the compound `CO[C@@H]1CN(C)C(=O)c2ccc(NS(=O)(=O)c3cn(C)cn3)cc2OC[C@@H](C)N(CCC(F)(F)F)C[C@@H]1C`, the relative growth worked out at 1.15.

As for `CN(C)CCN(Cc1ccc(Cl)cc1)c1ccccn1.Cl`, the relative growth amounted to 1.16. The result for `O=C(C[C@@H]1CC[C@@H]2[C@H](COC[C@H](O)CN2C(=O)c2ccncc2)O1)NCc1ccc(-c2ccccc2)cc1` reads 1.04; that for `CC(CCc1ccc(O)cc1)NCCc1ccc(O)c(O)c1.Cl` (stereo not given), 0.964; that for `Cc1ccccc1S(=O)(=O)N1C[C@H](O)COC[C@H]2O[C@H](CC(=O)N3CCC(Cc4ccccc4)CC3)CC[C@@H]21`, 0.835. In the case of `COc1cccc(S(=O)(=O)N(C)C[C@@H]2Oc3c(NC(=O)Nc4cccc5ccccc45)cccc3C(=O)N([C@@H](C)CO)C[C@H]2C)c1`, the relative growth turned out to be 0.993. In the case of `C[C@]12CCC(=O)C=C1[C@@H]1C[C@@H]1C1C2CC[C@@]2(C)C1[C@@H]1C[C@@H]1[C@@]21CCC(=O)O1` (stereo not given in full) it was 1.03; in that of `C1CCN=C(NC2CCCCC2)CC1`, 0.984; in that of `CC(C)c1ccc(/C=C2\CSc3ccccc3C2=O)cc1`, 1.01.

Turning to `Cc1[nH]c2ccccc2c1C(=O)CSc1ccc(Cl)cc1`, the relative growth was determined as 1.17. The result for `O=C(CN1C(=O)c2ccccc2C1=O)N1CCNCC1` reads 0.958; that for `COCC#Cc1ccc2c(c1)O[C@@H](CN(C)C(=O)c1ccccc1F)[C@H](C)CN([C@H](C)CO)S2(=O)=O`, 1.07; that for `NCC[C@@H]1CC[C@@H](NC(=O)C2CCCC2)[C@H](CO)O1`, 1.15.

Compound `CC(C)N1CCN(c2ccc(OC[C@H]3CO[C@](Cn4cncn4)(c4ccc(Cl)cc4Cl)O3)cc2)CC1` (racemic) registered a relative growth of 1.05. In the case of `Cn1cnc(S(=O)(=O)N2C[C@@H](O)COC[C@@H]3O[C@H](CC(=O)NC4Cc5ccccc5C4)CC[C@H]32)c1` it was 1.1. In the case of `C[C@H](O)[C@H](O)[C@@H](O)[C@@H](O)/C=N/NC(=O)CCCCC(=O)NO` it was 1.02; in that of `CN(C)[C@@H]1C(O)=C(C(N)=O)C(=O)[C@@]2(O)C(O)=C3C(=O)c4c(O)ccc(Cl)c4[C@@H](O)[C@H]3C[C@@H]12.Cl`, 0.167; in that of `CON(C)c1nc(Oc2ccc(=O)[nH]n2)nc(N(C)C)n1`, 1.09. Compound `CC(C)(CO)[C@@H](O)C(=O)NCCC(=O)[O-].[Na+]` [PANTOTHENIC ACID(d) Na salt] returned a relative growth of 0.929.

In the case of `COc1ccc2c(=O)c(OC)c(-c3ccccc3)oc2c1`, the relative growth was found to be 0.939. The result for `COC(=O)C[C@H]1C(C)(C)[C@@H](OC(C)=O)[C@@H]2CC3C4CC(=O)O[C@@H](c5ccoc5)[C@]4(C)CCC3[C@@]1(C)C2=O` (stereo not given in full) reads 1.03. Take `COc1cc(OC)nc(N=CNO)n1`: the relative growth was determined as 1.16.

In turn, `COCCOC(=O)N1C(=O)[C@@]2(c3cc(C#CCCO)ccc31)[C@H](C(=O)NC[C@H](O)c1ccccc1)[C@H]1C(=O)O[C@H](c3ccccc3)[C@H](c3ccccc3)N1[C@@H]2c1ccc(O)cc1` gave a relative growth of 0.984. In the case of `C=C1C(=O)O[C@@H]2/C=C(\CO[C@@H]3O[C@H](CO)[C@@H](O)[C@H](O)[C@H]3OC(=O)Cc3ccc(O)cc3)CC/C=C(/C=O)C[C@H](O)[C@@H]12` it was 1.12. In the case of `C[C@@H]1CN([C@H](C)CO)S(=O)(=O)c2ccc(C#Cc3cccnc3)cc2O[C@H]1CN(C)CC1CCOCC1` it was 0.9; in that of `CC(C)NC(=O)N[C@@H]1C=C[C@@H](CC(=O)NCCN2CCCC2)O[C@@H]1CO`, 1.08; in that of `C[C@H](CO)N1C[C@H](C)[C@H](CN(C)C(=O)CN(C)C)Oc2cc(C#Cc3ccccc3)ccc2S1(=O)=O`, 1.06. The result for `C=CCSc1nc(=O)cc(N)[nH]1` reads 1.15; that for `COc1ccc(-c2cc(=O)c3ccccc3o2)cc1`, 0.926. `Cn1cnc(S(=O)(=O)N2C[C@@H](O)COC[C@@H]3O[C@@H](CC(=O)N4CCN(c5ccccc5)CC4)CC[C@H]32)c1` registered a relative growth of 1.02.

In turn, `CO[C@H]1/C=C/O[C@@]2(C)Oc3c(C)c(O)c4c(O)c(c(/C=N/N5CCN(C6CCCC6)CC5)c(O)c4c3C2=O)NC(=O)/C(C)=C\C=C\[C@H](C)[C@H](O)[C@@H](C)[C@@H](O)[C@@H](C)[C@H](OC(C)=O)[C@@H]1C` displayed a relative growth of 0.185. `COc1cccc(OC)c1C(=O)N[C@@H]1C(=O)N2[C@@H]1SC(C)(C)[C@@H]2C(=O)[O-].[Na+]` yielded a relative growth of 1.13. For the compound `O=c1c(O)c(-c2ccccc2)oc2cc(O)ccc12`, the relative growth was 0.962. The compound `O=C(O)c1ccc(CCO)s1` returned a relative growth of 0.929.
